Data published in patent publication US9693954B2, “Co-delivery of stimulatory and inhibitory factors to create temporally stable and spatially restricted zones” (President and Fellows of Harvard College, priority 2010, dated 2017).

Test: in vitro cumulative release kinetics from PLG scaffold layers (125I tracers)
Assay type: physicochemical
Conditions: PLG scaffold layer, PBS, 37° C.; 4 μg VEGF, 20 μg anti-VEGF incorporated
Experimental: The total radioactivity of each scaffold layer (n=5) was measured with a WIZARD Automatic Gamma Counter (Perkin Elmer) prior to incubation at 37° C. in 2 mL of PBS. At specific measurement time points, release solutions were measured using the Gamma counter and the scaffolds were placed in fresh release solutions. The cumulative protein release from the scaffolds at each time point was normalized as a percentage of total protein incorporated.

Substance: VEGF
- protein released in the first 3 days (cumulative, % of total incorporated): Approximately 60%
